We go through one molecule from patent publication US8283336B2, “Unit dosage for brain health” (N. V. Nutricia, priority 2007, dated 2012).

For this assay, the system named is muscarinic acetylcholine receptor. The experiment in a line: oxotremorine-induced membrane potential change in PC12 cells after incubation with nutrients (receptor functionality). The format is cell-based. The conditions noted are these: 1 day of incubation, then 50 μM oxotremorine, percentage change compared to control conditions. The method, then: After 1 day of incubation the medium+additions were replaced by control medium and the cells were stimulated with 50 μM oxotremorine, an agonist at the muscarinic acetylcholine receptor, involved in learning and memory. Oxotremorine induces a depolarization of the membrane which can be measured as a change in membrane potential. At a fixed dose of the agonist, increases in membrane potential are thought to reflect improvements in receptor functioning.

For the molecule `Cc1c(C)c2c(c(C)c1O)CC[C@@](C)(CCC[C@H](C)CCC[C@H](C)CCCC(C)C)O2` [alpha-tocopherol], the membrane potential change result is recorded as “did not affect membrane potential change”.
